Assay results: PubChem BioAssay AID795 (NMMLSC, 2007)
The entries are a selection whose mix differs from that of the whole data set. Activity calls are given as the source filed them.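 The calls were made as follows: active = side scatter shift above 30%; inactive = the rest.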

Assay: inducers of granularity increase in LNCaP cells – cell-based, flow cytometry side scatter, primary screen (AID 795);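 also: androgen-responsive LNCaP prostate cancer cells in charcoal-stripped serum medium; percent of cells past a gate set so DMSO wells show 10% shift; higher shift means more granular cells and more differentiation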
Conditions: LNCaP differentiation, 4 d, at 10 µM, hits give high values

Row | Structure (SMILES) | side scatter shift
1 | O=C(COc1ccccc1)OC1CN2CCC1CC2 (configuration not stated) | inactive: 10%
2 | COP1(=S)c2c(C)nn(CCC#N)c2N=C(c2ccc(F)cc2)N1C (configuration not stated) | inactive: 12%
3 | Cc1nn(-c2ccccc2)c2c1P(=O)(N1CCOCC1)N(C)C(c1ccccc1)=N2 (configuration not stated) | inactive: 7%
4 | Clc1n[nH]nc1-c1nn[nH][15n]1 | inactive: 6%
5 | CCOP1(=S)c2c(C)nn(CCC#N)c2N=C(c2ccccc2F)N1C (configuration not stated) | inactive: 13%
6 | O=P(Nc1nccs1)(c1ccccc1)c1ccccc1 | inactive: 17%
7 | CCc1nc2c(n1)c1c(non1O)c1c2no[n+]1[O-] | inactive: 5%
